In patent US11396531B2, “Antimicrobial peptides comprising epsilon lysine residues” (priority 2016, dated 2022):

Tests used:
[1] = system: primary human dermal fibroblasts (HDFs); assay: MTS cytotoxicity assay; settings: for Cytotoxicity (in μg/ml) for HDFs: Concentration at which complete cytotoxicity was observed in MTS and HCA; for Cytotoxicity for primary human dermal fibroblasts: Table 5
Description: MTS ((3-(4,5-dimethylthiazol-2-yl)-5-(3-carboxymethoxyphenyl)-2-(4-sulfophenyl)-2H-tetrazolium)) assay and high content analysis (HCA) were performed to elucidate the effect of various polymers on metabolic activity and morphological parameters of cultured human dermal fibroblasts (hDF), respectively as described previously. The antineoplastic agent, nocodazole (5 μg/ml), served as the […] control whereas cells treated with PBS served as positive control. The average values from three independent triplicate experiments are reported. Cells were cultured in 96-well plates and scanned (16 randomly selected fields/well) using an automated microscope IN Cell Analyzer 2200 (GE Healthcare). The multi-parametric cytotoxicity bio-application module of the IN Cell Investigator software (GE Healthcare) was used in quantitative estimations and morphotypic analysis of acquired images, which were automatically converted into color-coded heatmaps using Spotrfire® software.
Human dermal fibroblast cells were seeded in 96-well plates (2×10^3 cells/well) and incubated for 24 h at 37° C. and 5% CO2. Cells were then treated with various concentrations of polymers or peptides (62.5 μg/ml-1 mg/ml. At the end of the treatment period (after 24 h), 20 or 50 μl of MTS tetrazolium solution was added into 96-well or 12-well plates and further incubated for 2 h at 37° C. Subsequently, the absorbance was measured at 490 nm using a microplate reader (Infinite M200 Pro, Tecan, Switzerland) and the relative cell viability was calculated. Each treatment was performed in two triplicates and reported.
The cytotoxicity of peptides and polymers were determined using CellTier 96® Aqueous One solution cell proliferation assay kit according to the manufacturer's instruction (Promega Corporation, Madison, Wis.). This assay evaluates mitochondrial function by measuring ability of viable cells to reduce MTS ((3-(4,5-dimethylthiazol-2-yl)-5-(3-carboxymethoxyphenyl)-2-(4-sulfophenyl)-2H-tetrazolium)) into a quantifiable […] formazan product. HDFs were seeded in 96-well plates (2×10^3 cells/well) and incubated for 24 h at 37° C. and 5% CO2. Cells were then treated with a concentrated stock solution of polymers (final concentration 62.5-2000 μg/ml in the well) or peptides (final concentration 4-1000 μg/ml in the well). After 24 h, 20 μl of MTS tetrazolium solution was added into 96-well well plates and further incubated for 2 h at 37° C. Subsequently, the absorbance was measured at 490 nm using a microplate reader (Infinite M200 Pro, Tecan, Switzerland) and the relative cell viability was calculated relative to untreated control (10 mM PBS, pH 7.0). Each treatment was performed in two triplicates and reported.

[2] = Calcein dye leakage from microbial model LUVs; settings: microbial model membrane
Description: (§1) To obtain an insight into the mechanism of membrane discrimination, large unilamellar vesicles (LUVs) which mimic the cytoplasmic membrane of mammalian (PC/Cholesterol) and microbial (PE:PG) cells were used. […] More dramatic results were observed when the experiments were carried out on PC/Cholesterol LUVs.

[3] = Calcein dye leakage from mammalian model LUVs; settings: highest (0.5) peptide:lipid ratio
Description: as §1

SMILES | Cytotoxicity (in μg/ml) for HDFs [1] [µg/mL] | Cytotoxicity for primary human dermal fibroblasts [1] [µg/mL] | concentration at which peptide becomes cytotoxic toward HDF [1] [µM] | dye release from PE:PG LUVs [2] [%] | dye leakage from PC/Cholesterol LUVs [3] [%]
CC[C@H](C)[C@H](NC(=O)CN)C(=O)NCC(=O)N[C@@H](C)C(=O)N[C@H](C(=O)N[C@@H](CC(C)C)C(=O)NCCCC[C@H](N)C(=O)N[C@H](C(=O)N[C@@H](CC(C)C)C(=O)N[C@H](C(=O)N[C@H](C(=O)NCC(=O)N[C@@H](CC(C)C)C(=O)N1CCC[C@H]1C(=O)N[C@@H](C)C(=O)N[C@@H](CC(C)C)C(=O)N[C@H](C(=O)N[C@@H](CO)C(=O)N[C@@H](Cc1c[nH]c2ccccc12)C(=O)N[C@H](C(=O)NCCCC[C@H](N)C(=O)N[C@@H](CCCNC(=N)N)C(=O)NCCCC[C@H](N)C(=O)N[C@@H](CCCNC(=N)N)C(=O)N[C@@H](CCC(N)=O)C(=O)N[C@@H](CCC(N)=O)C(N)=O)[C@@H](C)CC)[C@@H](C)CC)[C@@H](C)O)[C@@H](C)O)C(C)C)C(C)C [Peptide 4] | 1000 | 1000 | – | – | –
CC[C@H](C)[C@H](NC(=O)CN)C(=O)NCC(=O)N[C@@H](C)C(=O)N[C@H](C(=O)N[C@@H](CC(C)C)C(=O)NCCCC[C@H](N)C(=O)N[C@H](C(=O)N[C@@H](CC(C)C)C(=O)N[C@H](C(=O)N[C@H](C(=O)NCC(=O)N[C@@H](CC(C)C)C(=O)N1CCC[C@H]1C(=O)N[C@@H](C)C(=O)N[C@@H](CC(C)C)C(=O)N[C@H](C(=O)N[C@@H](CO)C(=O)N[C@@H](Cc1c[nH]c2ccccc12)C(=O)N[C@H](C(=O)N[C@@H](CCCCN)C(=O)N[C@@H](CCCNC(=N)N)C(=O)N[C@@H](CCCCN)C(=O)N[C@@H](CCCNC(=N)N)C(=O)N[C@@H](CCC(N)=O)C(=O)N[C@@H](CCC(N)=O)C(N)=O)[C@@H](C)CC)[C@@H](C)CC)[C@@H](C)O)[C@@H](C)O)C(C)C)C(C)C [Peptide 3] | 250 | 250 | 87.8 | ~40 | < 20
